# Key:
# The chains behind the UniProt entries cited, without tags or fusion partners. Residues count along the entry.
# UniProt Q9NZQ7, 19-238 limits assumed: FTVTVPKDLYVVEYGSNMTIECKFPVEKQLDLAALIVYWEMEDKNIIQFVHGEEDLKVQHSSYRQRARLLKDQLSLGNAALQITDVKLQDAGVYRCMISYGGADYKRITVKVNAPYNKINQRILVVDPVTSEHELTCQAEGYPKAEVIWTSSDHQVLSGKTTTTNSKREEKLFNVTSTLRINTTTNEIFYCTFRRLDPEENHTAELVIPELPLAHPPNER
# PD-1/PD-L1 PPI = PD-1/PD-L1 PPI (Homo sapiens, UniProt Q9NZQ7); assay: PDL1/PD1 Binding Assay; conditions: read-out: PD-1/PD-L1 PPI IC50; PDL1-6×His 0.3 nM, PD1-Fc-Avi-Biotin 2.5 nM, Acceptor/Donor beads, Envision reader
# Description: Compounds to be tested were serially diluted in DMSO, and further diluted in assay buffer (25 mM Hepes pH 7.4, 150 mM NaCl, 0.005% Tween 20, BSA 0.01%). Diluted compounds were added to the wells with final concentration of DMSO at 1%. PDL1-6×His protein was added to the wells, mixed well with compound. The plates were incubated for 30 min at room temperature. PD1-Fc-Avi-Biotin protein was added to the wells. Final concentration of PDL1 and PD1 protein is 0.3 nM and 2.5 nM, respectively. After a binding time of 30 min at room temperature, Anti-6×His Acceptor beads (final concentration 20 ug/ml) were added to the wells, and the incubation continued for 1 h. Streptavidin Donor beads (final concentration 20 ug/mL) were added at reduced light. The plates were sealed with foil and incubated in the dark for additional 1 h or overnight before reading on an Envision reader. The IC50 values were determined by fitting the curves using a four-parameter equation in Graphpad Prism 8.
# PD-1/PD-L1 interaction = assay: PD-1/PD-L1 NFAT Reporter Assay (co-culture of Jurkat T cells overexpressing PD-1 and PD-L1 expressing CHO cells); conditions: read-out: Jurkat NFAT EC50; co-culture 6 hrs at 37° C., NFAT-mediated luciferase activity
# Description: Blocking the PD-1/PD-L1 interaction will release the inhibitory signal and results in TCR signaling and NFAT-mediated luciferase activity.
# CHO cells expressing surface-bound anti-CD3 antibodies and PD-L1 were first seeded overnight and treated with the compounds. Jurkat cells overexpressing PD-1 and a luciferase construct under NFAT promoter were then immediately seeded on the monolayer of CHO cells. The co-culture was then incubated for 6 hrs at 37° C. Luciferase activity was assessed by adding the ONE-Glo reagent and measuring luminescence with a plate reader. EC50 values were determined from the fit of the dose-response curves.
Compound,IC50 (PD-1/PD-L1 PPI) [nM],EC50 (PD-1/PD-L1 interaction) [nM]
COc1nc(-c2cccc(-c3cccc(NC(=O)c4cn(C)c(=O)n(C)c4=O)c3Cl)c2Cl)cc2c1C(NC[C@@H]1CCC(=O)N1)CO2 (stereo partly drawn),< 10,< 10
CCOC(=O)N(C[C@@H]1CCC(=O)N1)C1COc2cc(-c3cccc(-c4cccc(NC(=O)c5cn(C)c(=O)n(C)c5=O)c4C)c3Cl)nc(OC)c21 (stereo partly drawn),< 10,> 10000
COc1nc(-c2cccc(-c3cccc(NC(=O)c4nn(C)c(=O)n(C)c4=O)c3C)c2Cl)cc2c1C(N[C@@H]1CCOC[C@H]1O)CC2 (stereo partly drawn),< 10,< 10

# Reference: US12534450B2, “Methods and compositions for targeting PD-L1” (Aligos Therapeutics, Inc., priority 2021, dated 2026)
